## Antibody variant affinities, Ab-91 heavy chain, assay 2

All variants were tested on one target, the spike HR2 peptide PDVDLGDISGINAS (SARS-CoV-2).

Parent: Ab-91, a human scFv built as VL, the linker GGGGSGGGGSGGGGS, VH. Only the CDRs of the heavy chain vary.
VL: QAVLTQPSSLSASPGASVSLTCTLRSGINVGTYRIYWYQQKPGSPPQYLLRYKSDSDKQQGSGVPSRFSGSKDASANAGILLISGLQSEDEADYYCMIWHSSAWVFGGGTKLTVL
VH: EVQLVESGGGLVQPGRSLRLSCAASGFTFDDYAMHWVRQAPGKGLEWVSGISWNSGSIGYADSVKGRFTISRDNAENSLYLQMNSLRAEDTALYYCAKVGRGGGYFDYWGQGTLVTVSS

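The parent was found by panning a naive human phage display library on the peptide. In library AAYL51, one, two or three CDR residues were substituted; doubles and triples were drawn at random. AlphaSeq pools MATa yeast showing the antibodies with MATalpha yeast showing the peptide. Binding brings cells together so that they mate, and sequencing counts the barcode pairs among the diploids. Scores were corrected for input abundance and mapped to Kd with protein pairs of known affinity run in the same pool. There are three technical replicates.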

The parent's heavy chain CDRs are GFTFDDYAMH, GISWNSGSIGYADSVK, VGRGGGYFDY; each variant's own CDRs replace them letter for letter. All variants listed here change Y105 of the VH, counted from its first residue. Kd is apparent (estimated from mating counts) and averaged on the log scale over replicates with a signal. Smaller is tighter. "not detected" means that the variant was in the library but no mating with the target was seen in any replicate; the authors take this as a sign of poor binding, and no number exists.

| CDR-H1 | CDR-H2 | CDR-H3 | apparent Kd | detected |
|---|---|---|---|---|
| GFTCDDYAMH | GISWNSGAIGYADSVK | VGRGGGAFDY | not detected | 0/3 |
| GFTFDDYAMH | GISWNSGSIENADSVK | VGRGGGCFDY | 15 µM | 1/3 |
| GFTFDDYAMH | MISWNSGSIMYADSVK | VGRGGGDFDY | not detected | 0/3 |
| GFTFDDEAMH | GISWNSASIGYADSVK | VGRGGGDFDY | not detected | 0/3 |
| GFWFDDYAMH | GISWNSGSICYADSVK | VGRGGGMFDY | not detected | 0/3 |
| GFTFDDYAQH | GISWNSGSIGYADSVK | VGRGGHFFDY | not detected | 0/3 |
| GFTHDDYAMH | GISWNSGSIGYADSVK | VGRGGGAFDY | 40 µM | 1/3 |
| GFTFDDYAHH | GISWNSGSIGYADSTK | VGRGGGSFDY | 490 µM | 1/3 |
| GFTFDDYAMH | GISWNSGSIGYAHSVK | VWRGGGSFDY | 34 µM | 2/3 |
| GFTFDDYAMH | GISWNSGSIGYADSVK | VGRGGGTFDY | 1.3 µM | 2/3 |
| GFTFDDYAMH | GISWNSGSIGYADKVW | VGRGGGMFDY | 37 nM | 3/3 |
| GFTADDYAMH | GISWNSGSIGYADSVK | VGRGGGPFDY | not detected | 0/3 |
| GFTFDDYAMH | GINWNSGSTGYADSVK | VGRGGGSFDY | not detected | 0/3 |
| GFTFDDYAMH | GISWNSGSIGYADSVM | VGRGCGPFDY | 43 µM | 2/3 |
| GFTFDDYAMH | GISWNSGCIGYADSVK | VGRGGGCIDY | 21 µM | 1/3 |
| GFTFDDYAMN | GISWNSGSIGYADSVK | VGRGGQDFDY | 71 µM | 3/3 |
| GFTFDDYAMH | GISSNSGSIGYADSVK | VGRGGPSFDY | 1.1 µM | 3/3 |
| GFTFDDYAMV | GISWNSGSIGYADSVK | VGRGGGFFDY | 29 µM | 1/3 |
| GFTFDDYAMH | GISWNSGSIVYKDSVK | VGRGGGKFDY | not detected | 0/3 |
| GFTFDDYAMH | GISWNSGSIGYADEVK | VGRGGGIFDE | 840 nM | 1/3 |
| GFTFDDYRMH | GISWRSGSIGYADSVK | VGRGGGHFDY | not detected | 0/3 |
| GFTNDDYAMH | GISWNSGSIGYADSVK | VGRGHGRFDY | 85 µM | 2/3 |
| GFTFDDYAMH | GISWNSGSIGWADSRK | VGRGGGNFDY | 250 µM | 3/3 |
| DFTFDDYAMH | GISWNSGGIGYADSVK | VGRGGGVFDY | 39 µM | 3/3 |
| IFTFDDYKMH | GISWNSGSIGYADSVK | VGRGGGEFDY | 97 µM | 3/3 |
| GFTFDDYAMH | GINFNSGSIGYADSVK | VGRGGGPFDY | not detected | 0/3 |
| GFTQDDYAMH | GISWNSGSIEYADSVK | VGRGGGNFDY | not detected | 0/3 |
| GFTGDDYAMH | GISWNSGSIGYADSMK | VGRGGGSFDY | not detected | 0/3 |
| GFTFDDYAMH | GISWNSTSIGYADSVK | VGRGIGRFDY | 110 µM | 2/3 |
| GFTFDDYAMH | GISWNSGSIGYADSVK | VGRGGKCFDY | not detected | 0/3 |
| GFTFDDYAMM | GISWNSGSIGYADSVK | VGRGGGQFDM | not detected | 0/3 |
| GFTFDDYAMH | GISWNSGSIGHADSVK | VGRGGTAFDY | 110 µM | 1/3 |
| GFTFFDYAMG | GISWNSGSIGYADSVK | VGRGGGQFDY | not detected | 0/3 |
| GYTFDDYAMH | GISWNSGSHGYADSVK | VGRGGGTFDY | 11 µM | 2/3 |
| GATFDWYAMH | GISWNSGSIGYADSVK | VGRGGGWFDY | not detected | 0/3 |
| GFTFDDYAMH | GISWWSGSIGYADSVK | VGRGGGHFDY | not detected | 0/3 |
| GFTFDDKAMH | NISWNSGSIGYADSVK | VGRGGGHFDY | not detected | 0/3 |
| GFTFDDYAMR | GISWNSGFIGYADSVK | VGRGGGRFDY | 200 µM | 1/3 |
| GFTFDDYAML | GISWNSGSIGYADSVK | VGRGGGSLDY | 13 µM | 2/3 |
| GFTFDDYAMH | GISWNLGSIGYFDSVK | VGRGGGKFDY | not detected | 0/3 |
| GFTFDDYAMT | GISWNSGSIGYADSVK | VGRGAGCFDY | 130 µM | 2/3 |
| GFTFDDYAMH | GISWNSGSIGYADSVK | VGRGGGWFDY | 10 nM | 3/3 |
| GFTFDDYAMH | GISWNFGSIGYADSVK | VGRGGGIFHY | not detected | 0/3 |
| GFTFDYYAMH | GISWNSGSIGYADSVK | VGRGGGLFDY | 16 nM | 2/3 |
| GFTFDDYAMH | GISWNSGSIGYADSVK | VGRGGGHFTY | 630 µM | 1/3 |
| GFTFDDYAMH | GCSWNSGSIGYADSVI | VGRGGGIFDY | 59 µM | 1/3 |
| GFIFDDYTMH | GISWNSGSIGYADSVK | VGRGGGMFDY | not detected | 0/3 |
| GFTFDDYAMH | GISWNSGHIGYADSVK | VGRGGGGFDY | 11 µM | 3/3 |
| GFTFDDYAHH | GISWNSGSIGYADSVK | VGRGGGEFDY | not detected | 0/3 |
| GFTFDDYAMH | GIDWNSGSIGYADSVK | VGRGGGIFDY | 220 µM | 3/3 |
| GFTFDDYAMH | GISWHSGSIGYADSVK | VGRGGGDFDY | 16 µM | 3/3 |
| GFTFDDYAMH | GISWLSGSIGYADLVK | VGRGGGAFDY | 10 µM | 1/3 |
| GFTFDDYACH | DISWNSGSIGYADSVK | VGRGGGVFDY | not detected | 0/3 |
| GFTFDDYAMH | IISWNSGSIGYADCVK | VGRGGGMFDY | not detected | 0/3 |
| GFTFDDYAMW | GISWNSGSIGYADSKK | VGRGGGAFDY | not detected | 0/3 |
| GFTFDDYAMH | NISWNSGSIGYADSVK | VGRGKGLFDY | not detected | 0/3 |
| GFTFDDYAMH | GISWNSSSIGYADSVK | VGRGGGSMDY | not detected | 0/3 |
| GFTFDDYAMH | GISWNSGSIGYADSVK | VGRGGGFFDY | 390 nM | 2/3 |
| GFTFDDYAMH | GHSWNSGSIGYADSVK | VIRGGGSFDY | 21 µM | 1/3 |
| GFTPDDYAMH | GISWNSGSIGYANSVK | VGRGGGDFDY | 98 µM | 2/3 |
| GFTFDSYAMH | GISWNSGSIGYADSVK | VGRGPGVFDY | not detected | 0/3 |
| GFTFDDYAMH | GISWNSGKIGYADSVK | VGRGGGWEDY | 1.8 µM | 1/3 |
| GFRFDDYAMH | GISWNSGSIGYADSVK | AGRGGGKFDY | 65 µM | 2/3 |
| GFTFDDYAMH | GISWNPGSIGYADSVK | VGRGGGIFDK | not detected | 0/3 |
| GFTFDDYAMH | GISWNSGSFGYAGSVK | VGRGGGVFDY | not detected | 0/3 |
| GFTFDDYAMH | GISWNSGSINYADSVK | VGRGNGVFDY | 12 µM | 1/3 |
| IFTFDDYAMH | GISWNSGSIGYADSVK | SGRGGGAFDY | not detected | 0/3 |
| GFTFDQYAMH | GISWNTGSIGYADSVK | VGRGGGHFDY | 7.9 nM | 3/3 |
| GFTADDYAMH | GISWNSPSIGYADSVK | VGRGGGLFDY | not detected | 0/3 |
| GFTFDDYAMH | GISWNSGSIGYADSVK | VGRGGGAFDY | 560 µM | 1/3 |
| GFTFDDYAMH | GISWNSGSIGYADSVK | VGRGGQKFDY | 14 nM | 3/3 |
| GFTFDDYAMH | GISWNSDSIGEADSVK | VGRGGGEFDY | not detected | 0/3 |
| GFTFMPYAMH | GISWNSGSIGYADSVK | VGRGGGNFDY | 72 µM | 1/3 |
| GFTFDDYAMH | GISWNSGSIGYADSVK | TGQGGGGFDY | 100 µM | 2/3 |
| GFTFDDYAMA | GESWNSGSIGYADSVK | VGRGGGEFDY | not detected | 0/3 |
| GFTFIDYAMH | AISWNSGSIGYADSVK | VGRGGGKFDY | 5.9 µM | 1/3 |
| GFTFDDLAMH | GIMWNSGSIGYADSVK | VGRGGGIFDY | 130 µM | 2/3 |
| GFTFDDYAMH | GISWDSPSIGYADSVK | VGRGGGWFDY | 420 µM | 3/3 |
| GFTFEDYAMH | GISWASGSIGYADSVK | VGRGGGEFDY | 3.2 µM | 1/3 |
| GFTFDDYAMH | GISWNSGSSGYADSVK | VGRGGGHFSY | not detected | 0/3 |

The opening 7 entries, copied out:

CDR-H1,CDR-H2,CDR-H3,apparent Kd,detected
GFTCDDYAMH,GISWNSGAIGYADSVK,VGRGGGAFDY,not detected,0/3
GFTFDDYAMH,GISWNSGSIENADSVK,VGRGGGCFDY,15 µM,1/3
GFTFDDYAMH,MISWNSGSIMYADSVK,VGRGGGDFDY,not detected,0/3
GFTFDDEAMH,GISWNSASIGYADSVK,VGRGGGDFDY,not detected,0/3
GFWFDDYAMH,GISWNSGSICYADSVK,VGRGGGMFDY,not detected,0/3
GFTFDDYAQH,GISWNSGSIGYADSVK,VGRGGHFFDY,not detected,0/3
GFTHDDYAMH,GISWNSGSIGYADSVK,VGRGGGAFDY,40 µM,1/3

As a blank, each scFv also met three strains without target: over library AAYL51, 21% of these pairings were detected, typically at 34 µM and seldom below 1.8 µM.

Reference: Engelhart et al. 2022, doi:10.1038/s41597-022-01779-4. File: FLAb, binding data.